One series has as its target CIMPR (Homo sapiens, UniProt P11717). Kind of series: Immobilized CIMPR affinity column binding, elution with free M6P. The conditions noted are these: rhα-Gal A clones produced by perfusion culture. An excerpt:
Purification on AEX columns selects for phosphorylated/sialylated enzyme with low content of neutral glycans, if molecules with such characteristics are present in the cell culture supernatant. The binding to the CIMPR can be assessed by binding the enzyme preparation to immobilized CIMPR followed by elution with increasing concentrations of M6P.
A desirable product attribute is high binding to the CIMPR. Binding to CIMPR presents a pathway for enzyme uptake into the lysosome which represents a major reservoir of accumulated substrate. The ability of the enzyme candidates to bind in vivo to the correct receptor for internalization was estimated by applying the cell supernatant from each pool to a CIMPR column (FIGS. 6A-6F). […] Increasing concentrations of free M6P from 0 to 1 mM, followed by a step to 5 mM, were passed over the column to elute the bound enzyme. The degree of CIMPR binding for the cell pools ranged from 37% to 52% (as measured by activity). Pools 1 and 4 had the highest CIMPR binding with 52% with pool 2 slightly less at 51%. Thus, these pools had more favorable CIMPR binding characteristics than the other pools at the same time point during culturing.
The ability of recombinant α-galactosidase A to bind to a CIMPR column in vitro is an indicator of that recombinant enzyme's ability to bind to the receptor in vivo and target the lysosomes. Two clones of rhα-Gal A (clone 01-003 and clone 04-023) were produced by perfusion culture and the binding was determined by passing each enzyme over an immobilized CIMPR affinity column (FIG. 7), as described above. FIGS. 7A-7C illustrate that 90% of Fabrazyme (agalsidase beta) bound to the CIMPR column, 80% of rhα-Gal A (01-003), and 96% of rhα-Gal A (04-023) bound the CIMPR column. FIGS. 7D-7F illustrate how the expression and purification can be varied to generate molecules that have higher binding affinity for the CIMPR column.

Protein sequences, listed by entry. Tags and fused reporters are not part of them. Residues count along the entry.
UniProt P11717, 41-2491, species assumed: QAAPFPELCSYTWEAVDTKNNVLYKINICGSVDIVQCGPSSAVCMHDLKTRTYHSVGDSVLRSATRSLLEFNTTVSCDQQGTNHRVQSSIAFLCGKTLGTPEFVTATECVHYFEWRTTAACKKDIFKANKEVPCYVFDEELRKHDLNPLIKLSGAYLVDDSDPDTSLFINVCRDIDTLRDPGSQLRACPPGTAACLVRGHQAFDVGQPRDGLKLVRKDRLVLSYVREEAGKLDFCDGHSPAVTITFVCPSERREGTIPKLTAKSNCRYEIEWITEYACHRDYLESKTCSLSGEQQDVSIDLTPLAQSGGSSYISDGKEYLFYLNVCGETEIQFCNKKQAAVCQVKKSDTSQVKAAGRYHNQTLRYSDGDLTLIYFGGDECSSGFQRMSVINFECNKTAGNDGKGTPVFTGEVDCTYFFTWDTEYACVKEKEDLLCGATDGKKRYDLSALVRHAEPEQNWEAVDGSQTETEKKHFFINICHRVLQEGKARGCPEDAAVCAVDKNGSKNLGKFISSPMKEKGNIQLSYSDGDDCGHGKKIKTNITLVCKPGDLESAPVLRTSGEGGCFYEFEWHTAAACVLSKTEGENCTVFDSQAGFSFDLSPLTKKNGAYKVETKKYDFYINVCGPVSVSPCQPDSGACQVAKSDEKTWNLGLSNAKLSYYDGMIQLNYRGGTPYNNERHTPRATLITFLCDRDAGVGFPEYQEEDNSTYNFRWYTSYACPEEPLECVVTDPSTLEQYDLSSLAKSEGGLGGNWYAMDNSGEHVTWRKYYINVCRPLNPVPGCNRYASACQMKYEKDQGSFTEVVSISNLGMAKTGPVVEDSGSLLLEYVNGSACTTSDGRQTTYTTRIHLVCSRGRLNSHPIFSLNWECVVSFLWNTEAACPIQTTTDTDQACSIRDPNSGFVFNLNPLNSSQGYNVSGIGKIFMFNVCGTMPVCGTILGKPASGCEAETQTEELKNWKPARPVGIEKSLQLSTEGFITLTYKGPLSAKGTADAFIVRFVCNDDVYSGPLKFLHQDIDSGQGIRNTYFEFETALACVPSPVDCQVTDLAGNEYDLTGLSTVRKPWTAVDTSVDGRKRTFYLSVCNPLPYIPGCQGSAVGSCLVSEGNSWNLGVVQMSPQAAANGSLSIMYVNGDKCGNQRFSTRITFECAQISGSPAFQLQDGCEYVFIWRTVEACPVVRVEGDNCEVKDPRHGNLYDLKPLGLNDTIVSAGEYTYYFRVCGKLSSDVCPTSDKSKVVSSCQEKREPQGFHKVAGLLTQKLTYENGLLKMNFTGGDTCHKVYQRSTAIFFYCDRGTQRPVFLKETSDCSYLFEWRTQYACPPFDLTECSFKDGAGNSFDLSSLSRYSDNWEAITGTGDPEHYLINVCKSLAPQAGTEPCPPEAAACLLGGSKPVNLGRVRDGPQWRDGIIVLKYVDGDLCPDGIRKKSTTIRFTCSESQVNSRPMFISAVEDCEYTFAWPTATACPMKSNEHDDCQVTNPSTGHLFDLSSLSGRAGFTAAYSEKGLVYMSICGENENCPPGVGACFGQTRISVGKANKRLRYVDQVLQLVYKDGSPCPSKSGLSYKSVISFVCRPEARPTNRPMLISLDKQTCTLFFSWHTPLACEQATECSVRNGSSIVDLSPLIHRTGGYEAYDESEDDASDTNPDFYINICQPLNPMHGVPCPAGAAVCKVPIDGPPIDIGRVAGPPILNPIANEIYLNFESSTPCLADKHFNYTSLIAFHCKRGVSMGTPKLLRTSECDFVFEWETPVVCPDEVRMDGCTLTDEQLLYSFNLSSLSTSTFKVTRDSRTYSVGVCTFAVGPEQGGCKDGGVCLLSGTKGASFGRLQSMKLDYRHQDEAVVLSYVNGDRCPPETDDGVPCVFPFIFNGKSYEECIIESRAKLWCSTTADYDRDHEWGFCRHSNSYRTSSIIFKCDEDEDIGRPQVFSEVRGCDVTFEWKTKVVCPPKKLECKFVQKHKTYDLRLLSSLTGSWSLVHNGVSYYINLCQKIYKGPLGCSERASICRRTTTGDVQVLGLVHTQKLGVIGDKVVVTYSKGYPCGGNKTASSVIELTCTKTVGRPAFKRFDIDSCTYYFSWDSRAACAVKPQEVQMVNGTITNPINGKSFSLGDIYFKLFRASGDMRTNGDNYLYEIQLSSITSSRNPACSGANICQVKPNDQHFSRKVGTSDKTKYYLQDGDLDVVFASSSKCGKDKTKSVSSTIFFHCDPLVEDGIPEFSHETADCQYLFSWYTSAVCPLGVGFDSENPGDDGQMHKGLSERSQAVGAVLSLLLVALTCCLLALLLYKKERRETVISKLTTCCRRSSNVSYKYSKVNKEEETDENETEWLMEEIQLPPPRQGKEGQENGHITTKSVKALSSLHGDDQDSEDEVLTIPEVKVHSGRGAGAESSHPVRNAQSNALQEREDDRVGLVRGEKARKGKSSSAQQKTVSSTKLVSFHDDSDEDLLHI

The nature of series [1]: N-glycan profile (HPLC of 2AA labeled glycans or LC/MS/MS). As to conditions: normal-phase LC of 2-anthranilic acid derivatives, elution 15-30 mins. In kind it is physicochemical. On the procedure: The glycan profiles of enzymes produced by both clones were analyzed in order to elaborate on in vitro and in vivo characteristics that could affect clinical efficacy. Glycans from protein samples of each α-Gal A were removed by peptide N-glycosidase F (PNGase) under standard denaturing and reducing conditions. The extent of deglycosylation was assessed on SDS-PAGE with the protein displaying a shift to lower apparent molecular weight upon deglycosylation (FIG. 9). Following release of the glycans from the protein backbone, the glycans are reacted with anthranilic acid to form 2-anthranilic acid derivatives, which are then separated by normal-phase chromatography on an amino column.
Normal phase liquid chromatography on amino columns is a valuable technique to compare the relative abundance of all glycan forms. The retention time is influenced by charge density and overall oligosaccharide size. Glycans eluting between 15-30 minutes are neutral glycan consisting of high-mannose and asialyo-complex oligosaccharides.
A detailed comparison of the glycans for Replagal (agalsidase alfa), Fabrazyme (agalsidase beta), rhα-Gal A 04-023 and rhα-Gal A 01-003 is provided in Tables 2-4 below. Table 2 provides a summary of a monosaccharide analysis, Table 3 provide a summary of the glycan “families”, and Table 4 provides a summary of the glycan structures. […]

Take “Fabrazyme: homodimeric recombinant human α-Gal A marketed by Genzyme under the name Fabrazyme [reference compound]”: the “bound to the CIMPR column” value with CIMPR was 90%. Also, in series [1], the “Neutral glycans, share of the total glycans (FIG. 10)” value is recorded as approximately 13%.

“rhα-Gal A 04-023: recombinant human α-galactosidase A produced by CHO cell clone 04-023”: the “bound to the CIMPR column” value with CIMPR is reported as 96%.

Turning to “rhα-Gal A 01-003: recombinant human α-galactosidase A produced by CHO cell clone 01-003”, in the series with CIMPR, the “bound to the CIMPR column” value was 80%.

The values are drawn from patent US11357834B2, “Recombinant α-galactosidase A for treatment of Fabry disease” (Amicus Therapeutics, Inc., priority 2017, dated 2022).
